{"source": "patent US20200237736A1", "about": "“METHODS FOR PREVENTING OR TREATING CANCER RESISTANCE TO EGFR INHIBITION” (INSERM (INSTITUT NATIONAL DE LA SANTE ET DE LA RECHERCHE …, priority 2017, published 2020)", "key": {"[1]": {"test_system": "PC9 cells containing the EGFR-T790M mutation", "experiment": "CRISPR-barcoding qPCR: fraction of EGFR-T790M barcode in PC9 cells in the presence of gefitinib", "assay_type": "cell-based", "settings": "5 days, FIG. 1A", "description": "(§1) Cells were transfected with a Nucleofector II device (Lonza) using the Amaxa Nucleofector kit (Lonza) and electroporation program recommended by the manufacturer.\n(§2) The set of silent mutations is designed to enable PCR specificity and to avoid recognition by the corresponding sgRNA used to cleave the endogenous sequence. […] Immediately after transfection, the cells were pooled in the same flask.\n(§3) gDNA was extracted using the NucleoSpin Tissue kit (Macherey-Nagel). To avoid potential amplification from ssODN molecules not integrated in the correct genomic locus, one of the two primers was designed to target the endogenous genomic sequence flanking the region sharing homology with the ssODNs.\nas §1, §2"}, "[2]": {"test_system": "EGFR-C797S cells within PC9-(EGFR-T790M) cells", "experiment": "CRISPR-barcoding qPCR: EGFR-C797S barcode in PC9-(EGFR-T790M) cells", "assay_type": "cell-based", "settings": "sorafenib 5 μM co-treatment with osimertinib 1 μM, nine days; FIG. 3A", "description": "as §2, §3"}, "[3]": {"test_system": "EGFR-C797S cells within PC9-(EGFR-T790M) cells", "experiment": "Colony forming assay, EGFR-C797S barcoded PC9-(EGFR-T790M) cells", "assay_type": "cell-based", "settings": "sorafenib 5 μM co-treatment with osimertinib 1 μM, 14 days; FIG. 3B"}, "[4]": {"test_system": "Parental PC9 cells (EGFR-T790 wild-type) containing the EGFR-C797S mutation", "experiment": "CRISPR-barcoding qPCR: EGFR-C797S barcode in parental PC9 cells (EGFR-T790 wild-type)", "assay_type": "cell-based", "settings": "PC9 cells not previously selected with other EGFR TKIs; osimertinib 1 μM, sorafenib 5 μM, nine days; FIG. 12", "description": "as §2, §3"}, "EGFR": {"test_system": "EGFR", "experiment": "Immunoblot, EGFR expression in PC9 cells", "assay_type": "cell-based"}, "MAPK, AKT and mTOR": {"test_system": "MAPK, AKT and mTOR", "experiment": "Immunoblot, downstream pathways regulated by EGFR in PC9 cells", "assay_type": "cell-based", "settings": "after three days of sorafenib (5 μM) treatment, FIG. 5"}, "[5]": {"test_system": "LIM1215 colon cancer cells containing the EGFR-G465R mutation", "experiment": "CRISPR-barcoding qPCR: EGFR-G465R barcode in LIM1215 colon cancer cells", "assay_type": "cell-based", "settings": "sorafenib 1 or 5 μM with cetuximab 20 μg/ml, six days; FIG. 13", "description": "as §1, §2, §3"}, "colorectal carcinoma": {"test_system": "colorectal carcinoma", "settings": "treatment of colorectal carcinoma; Cunningham et al 2004; cited from earlier work"}}}
{"molecule": "CNC(=O)c1cc(Oc2ccc(NC(=O)Nc3ccc(Cl)c(C(F)(F)F)c3)cc2)ccn1", "note": "[sorafenib]", "values": [{"measurement": "enrichment of PC9 cells containing the EGFR-T790M mutation (EGFR-T790M barcode, qPCR from gDNA)", "setting": "[1]", "value": "dose-dependently prevented the enrichment"}, {"measurement": "amplification of EGFR-C797S cells (qPCR)", "setting": "[2]", "value": "blocked"}, {"measurement": "amplification of EGFR-C797S cells (colony forming assay)", "setting": "[3]", "value": "blocked"}, {"measurement": "enrichment of EGFR-C797S cells induced by osimertinib (qPCR)", "setting": "[4]", "value": "strongly inhibited the enrichment"}, {"measurement": "EGFR expression", "setting": "EGFR; 3 days, sorafenib 5 μM or SC-1 20 μM, FIG. 11B", "value": "down-regulated"}, {"measurement": "EGFR expression", "setting": "EGFR; after three days of sorafenib (5 μM) treatment, FIG. 5", "value": "dramatic decrease"}, {"measurement": "downstream pathways regulated by EGFR, including MAPK, AKT and mTOR", "setting": "MAPK, AKT and mTOR", "value": "inhibition"}, {"measurement": "enrichment of the EGFR-G465R barcode induced by cetuximab (qPCR)", "setting": "[5]", "value": "inhibited by sorafenib in a dose-dependent manner"}]}
{"molecule": "cetuximab", "values": [{"measurement": "clinical response rate", "setting": "colorectal carcinoma", "value": "about 11%"}]}
